Experimental data: article PMC7450990 (Journal of medicinal chemistry, 2019)

Test system: Hh pathway (endogenous Gli1 mRNA levels), ASZ-001 cells
Assay: cells
Conditions: Mus musculus, ASZ001, 48 h, read-out: IC50 (Hh pathway inhibition, Gli1 mRNA), ASZ-001 cells, 48 h incubation, Mean ± SEM

Row | SMILES | IC50 [µM]
1 | C[C@]1(c2ccc(Cl)cc2Cl)OC[C@@H](COc2ccc(N3CCN(c4ccc(NC(=O)Oc5ccccc5)cc4)CC3)cc2)O1 [Compound 38, phenyl (4-(4-(4-(((2S,4R)-2-(2,4-dichlorophenyl)-2-methyl-1,3-dioxolan-4-yl)methoxy)phenyl)piperazin-1-yl)phenyl)carbamate] | > 10
2 | C[C@@]1(c2ccc(Cl)cc2Cl)OC[C@@H](COc2ccc(N3CCN(c4ccc(NC(=O)Oc5ccccc5)cc4)CC3)cc2)O1 [Compound 37, phenyl (4-(4-(4-(((2R,4R)-2-(2,4-dichlorophenyl)-2-methyl-1,3-dioxolan-4-yl)methoxy)phenyl)piperazin-1-yl)phenyl)carbamate] | > 10
